Experimental findings from patent US20240336629A1, “Tricyclic Derivatives Useful As PARP7 Inhibitors” (JACOBIO PHARMACEUTICALS CO., LTD., priority 2021, published 2024) are described below.

Amino acid sequences for entries named in this document (tags omitted). Residues count along the entry.
UniProt Q7Z3E1, 456-657 limits assumed: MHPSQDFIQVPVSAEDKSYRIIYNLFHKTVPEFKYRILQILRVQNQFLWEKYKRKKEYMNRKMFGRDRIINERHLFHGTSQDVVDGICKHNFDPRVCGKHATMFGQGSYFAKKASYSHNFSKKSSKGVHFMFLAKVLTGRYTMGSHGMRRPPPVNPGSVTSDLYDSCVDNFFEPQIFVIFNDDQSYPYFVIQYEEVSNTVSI

“And” between values parts separate entries of the source, which are not always exact repeats. Equal entries are not always repeated.

Test [1] has as its system lung cancer cell line H1373 (high expression of PARP7). The test is described as follows: Lung cancer cell proliferation inhibition experiment (CTG method). Type of test: cell-based. The following applies: read-out: H1373 (IC50 μM); H1373 cells, 144 hrs incubation, Cell Titer Glo.
Another test addresses PARP7 enzyme (Homo sapiens (Human), UniProt Q7Z3E1). The test is described as follows: PARP7 enzymatic experiment (HTRF assay). Type of test: biochemical. Conditions: read-out: PARP7 Enzyme (IC50 μM), 4PL fit. (TR-FRET usually uses a lanthanide donor and a delayed reading to cut background.)

As usually defined, the IC50 is the concentration at which inhibition is half-maximal. `CC(=O)c1cnc2c(c1)OCC[C@@H]1CN(C(=O)CCOC[C@H](C)Nc3cn[nH]c(=O)c3C(F)(F)F)CCN21` (single isomer, unassigned): in test [1], the IC50 worked out at 0.328 µM. Still for that read-out and setting: next, `C[C@@H](COCCC(=O)N1CCN2c3ncc(Cl)cc3OCC[C@@H]2C1)Nc1cn[nH]c(=O)c1C(F)(F)F` (single isomer, unassigned): 0.0289 µM; `C[C@@H](COCCC(=O)N1CCN2c3ncc(Cl)cc3OCC[C@H]2C1)Nc1cn[nH]c(=O)c1C(F)(F)F` (single isomer, unassigned): 0.615 µM; `Cc1cnc2c(c1)OCC[C@H]1CN(C(=O)CCOC[C@H](C)Nc3cn[nH]c(=O)c3C(F)(F)F)CCN21` (single isomer, unassigned): 0.104 µM. For `C[C@@H](COCCC(=O)N1CCN2c3ncc(C(F)(F)F)cc3NCCC2C1)Nc1cn[nH]c(=O)c1C(F)(F)F` (single isomer, unassigned) [Compound 37B], in test [1], the IC50 came to 0.086 µM.

Regarding `C[C@@H](COCCC(=O)N1CCN2c3ncc(C(F)(F)F)cc3OCCC2C1)Nc1cn[nH]c(=O)c1C(F)(F)F` (single isomer, unassigned) [Compound 54A], the figures for the IC50 (in test [1]; at PARP7 enzyme) were 0.0332 µM and 0.000726 µM, respectively. Taken in the same sequence, the figures for `C[C@@H](COCCC(=O)N1CCN2c3ncc(C(F)(F)F)cc3OCCC2C1)Nc1cn[nH]c(=O)c1C(F)(F)F` (single isomer, unassigned) [Compound 54B] were 0.802 µM and 0.00179 µM. As for `CC1CC2CN(C(=O)CCOC[C@H](C)Nc3cn[nH]c(=O)c3C(F)(F)F)CCN2c2ncc(C(F)(F)F)cc2O1` (single isomer, unassigned) [Compound 62A], on PARP7 enzyme, the IC50 is 0.00153 µM and 0.00177 µM. Consider `CC1CC2CN(C(=O)CCOC[C@H](C)Nc3cn[nH]c(=O)c3C(F)(F)F)CCN2c2ncc(C(F)(F)F)cc2O1` (single isomer, unassigned) [Compound 62B], for which, in test [1], the 50% inhibitory concentration (IC50) stood at 0.329 µM. With `CC1CC2CN(C(=O)CCOC[C@H](C)Nc3cn[nH]c(=O)c3C(F)(F)F)CCN2c2ncc(C(F)(F)F)cc2O1` (single isomer, unassigned) [Compound 62C], the IC50 at PARP7 enzyme was 0.00182 µM and 0.00132 µM.
